Key:
[1] = tested on: rat myocardium; test: Comparison of 18FDG and [18F]F-AraG uptake in rat myocardium; conditions: in vivo
Source text: The rats were imaged with tracers on consecutive days.

[2] = tested on: heart wall; test: [18F]F-AraG PET in cancer patients, myocardial uptake and safety; conditions: human, in vivo
Source text: FIG. 16 provides maximum intensity projection (MIP) [18F]F—AraG images of 18FDG and [18F]F—AraG myocardial uptake in a head and neck patient. The myocardial uptake in the diagnostic 18FDG obtained after fasting was low.
FIGS. 20A-20C show transverse [18F]F AraG PET images in a healthy volunteer in FIG. 20A and in a head and neck cancer patient in FIG. 20B. […] The increased signal before immunotherapy may indicate cardiotoxicity of prior anticancer treatments.
The safety and radiation dosimetry of [^18F]F—AraG was studied in six, healthy subjects (three male and three female) during the first-in-human study at UCSF. […] The signal persisted during the imaging window, indicating trapping of the tracer (FIG. 18). The tracer uptake appeared homogenous with no focal or regional increases. […] Radiomics, a computational method used to analyze and extract abundant quantitative features present in the images, such as texture, heterogeneity, and shape, has been mostly employed in oncologic imaging for improvement of cancer screening and early detection (48,49). […] Texture analysis of images can allow better characterization and quantification of the signal differences observed between healthy volunteers and some cancer patients (FIG. 20). […]

For “^18F-fluorodeoxyglucose [18FDG, reference compound]”, the “Reproducibility of myocardial uptake” value [1] was “variation” and the Myocardial uptake [2] was “low”.
